Test: Solubility in water of cationic phosphate binders (Lange's Handbook)
Conditions: relative hydrophile by solubility in water

## Calcium Gluconate
  Hydrophile?: Yes (a cationic phosphate binder that has a solubility in water that exceeds about 0.5 g/100 mL of water)

From patent US8034833B2, “Phosphorus binder for treatment of renal disease” (Biolink Life Sciences, Inc., priority 2008, dated 2011)
